Results published in article PMC4357465, “Tool Compounds Robustly Increase Turnover of an Artificial Substrate by Glucocerebrosidase in Human Brain Lysates” (PLoS ONE, 2015).

Sequences of proteins named here, by UniProt entry; tags and fusion partners are left off. Residues count along the entry.
UniProt P04062, 40-536 limits assumed: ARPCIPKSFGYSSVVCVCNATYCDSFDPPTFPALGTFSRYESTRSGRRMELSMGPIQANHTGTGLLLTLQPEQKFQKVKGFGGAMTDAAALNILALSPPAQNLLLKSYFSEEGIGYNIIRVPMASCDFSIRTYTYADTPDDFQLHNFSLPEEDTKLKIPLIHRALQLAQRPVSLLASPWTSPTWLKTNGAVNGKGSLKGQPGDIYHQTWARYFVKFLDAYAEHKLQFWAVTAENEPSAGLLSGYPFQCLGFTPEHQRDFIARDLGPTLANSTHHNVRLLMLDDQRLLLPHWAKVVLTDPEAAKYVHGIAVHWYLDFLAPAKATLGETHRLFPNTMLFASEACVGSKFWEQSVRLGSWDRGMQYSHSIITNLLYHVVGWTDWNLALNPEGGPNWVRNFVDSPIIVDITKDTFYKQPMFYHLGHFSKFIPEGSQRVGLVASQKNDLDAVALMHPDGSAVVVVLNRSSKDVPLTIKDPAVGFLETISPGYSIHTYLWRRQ
UniProt P17439, 20-515 limits assumed: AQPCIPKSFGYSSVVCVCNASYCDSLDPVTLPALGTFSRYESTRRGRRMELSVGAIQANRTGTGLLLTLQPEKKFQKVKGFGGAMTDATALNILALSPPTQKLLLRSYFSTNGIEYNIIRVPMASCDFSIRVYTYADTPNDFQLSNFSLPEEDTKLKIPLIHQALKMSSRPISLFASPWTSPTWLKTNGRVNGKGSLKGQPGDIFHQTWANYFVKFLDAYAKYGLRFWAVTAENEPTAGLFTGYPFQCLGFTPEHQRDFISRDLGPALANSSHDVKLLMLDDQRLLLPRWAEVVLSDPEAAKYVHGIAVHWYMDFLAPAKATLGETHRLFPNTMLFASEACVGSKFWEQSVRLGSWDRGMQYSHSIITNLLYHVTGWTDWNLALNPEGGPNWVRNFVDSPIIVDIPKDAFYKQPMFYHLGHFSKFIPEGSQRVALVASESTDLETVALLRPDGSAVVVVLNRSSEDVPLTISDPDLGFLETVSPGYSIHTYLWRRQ

Tests used:
N370S mutant GBA1 = settings: human spleen homogenates; cited from earlier work
[1] = solubility of compounds under assay conditions; type: physicochemical
[2] = molecular target: GBA1 in lysates from human cortex (Homo sapiens, UniProt P04062); test: GBA1 tissue assay, 4MUG turnover in human cortex lysates; settings: for % activation at 31.6 μM + NaTc: with sodium taurocholate; for pEC50: read-out: EC50 + NaTc, with sodium taurocholate, three independent experiments
[3] = system: GBA1 in lysates from human cortex; test: as above; settings: for % activation at 31.6 μM - NaTc: without sodium taurocholate; for pEC50: read-out: EC50 - NaTc, without sodium taurocholate, three independent experiments
wild-type human GBA1 = wild-type human GBA1 (Homo sapiens, UniProt P04062); test: assay measuring turnover of glucosylceramide; settings: cell free, natural substrate 50 μM glucosylceramide
[4] = molecular target: GBA1 in mouse brain lysates (Mus musculus, UniProt P17439); test: GBA1 tissue assay, 4MUG turnover in mouse brain lysates; type: biochemical
Method: (§1) Human cortex was acquired from brain banks (Tissue Solutions: http://www.tissue-solutions.com; Proteogenex: http://www.proteogenex.com). Human cortex samples were obtained from deceased aged Caucasian subjects without any diagnosis of neurodegenerative disorders. Mouse brain was obtained from 4–7 month old C57BL/6J mice. All mouse experiments were performed in accordance with the specifications of both the National Institutes of Health Guide for the Care and Use of Laboratory Animals, studies were approved by Pfizer’s Internal Animal Care and Use Committee (IACUC). […] Samples were then centrifuged at 20,000g for 15 minutes at 4°C. Supernatant was collected, and used for activity assays and Western blots. Protein concentration was determined using the Pierce BCA protein assay kit. Tissue lysates and pellets were stored at -80°C until use. For enzymatic activity assays, lysates were subjected only to one free-thaw cycle. Independent replicates were obtained using brain lysates from either different human subjects or different mice. […] Brain tissue lysates were diluted to 0.4 μg/ μl of protein in the same homogenization buffer, as described above. 25 μl of diluted lysate was added to the plate (Costar, 7200567). Lysates were then incubated on ice in the presence or absence of a compound for 30 minutes. 100 μl of assay buffer was then added to the plate. The same assay buffer was used as in the cell free/recombinant experiments and processed as described above.

[5] = system: GBA1 in mouse brain lysates; test: as above; type: biochemical; settings: mouse brain lysates; 31.6 μM; without sodium taurocholate
Method: as §1

purified human GBA1 = purified human GBA1 (Homo sapiens, UniProt P04062); test: GBA1 enzymatic cell-free assay, turnover of 4MUG; type: biochemical; settings: for activation of purified GBA1, % signal: maximal signal, absence of sodium taurocholate; for activation of purified GBA1, % signal / pEC50: representative experiment
[6] = molecular target: human recombinant GBA1 in mouse brain lysates (Homo sapiens, UniProt P04062); test: human recombinant GBA1 added to mouse brain lysates, 4MUG turnover; settings: purified human GBA1 added to mouse brain lysates; for pEC50: mean ± SEM
[7] = mouse brain lysates, with sodium taurocholate
[8] = read-out: EC50 purified GBA1 (+NaTc), with sodium taurocholate
[9] = read-out: EC50 purified GBA1 (-NaTc), without sodium taurocholate
[10] = read-out: EC50: + NaTc, with sodium taurocholate
[11] = read-out: EC50: - NaTc, without sodium taurocholate

Compound | turnover of 4MUG artificial substrate by N370S mutant GBA1 (N370S mutant GBA1) | highest concentration at which both compounds were soluble [1] [µM] | % activation at 31.6 μM + NaTc [2] [%] | pEC50 [2] | % activation at 31.6 μM - NaTc [3] [%] | pEC50 [3] | human GBA1 activity measured by cleavage of glucosylceramide substrate (wild-type human GBA1) | effect on GBA1 activity relative to vehicle/DMSO ([4]; 10 μM, mouse brains left at room temperature 0, 2, 4 or 24 hours) | % activation at 31.6 μM: + NaTc [4, 7] [%] | pEC50 ([4]; read-out: EC50: + NaTc, mouse brain lysates, with sodium taurocholate, three independent experiments) | % activation at 31.6 μM: - NaTc [5] [%] | activity of deglycosylated or sonicated human recombinant GBA1 (purified human GBA1; 10 μM, 4MUG assay) | activation of purified GBA1, % signal (purified human GBA1) [%] | pEC50 (purified human GBA1; [8]) | pEC50 (purified human GBA1; [9]) | % activation at 31.6 μM: + NaTc ([6]; with sodium taurocholate) [%] | % activation at 31.6 μM: - NaTc ([6]; without sodium taurocholate) [%] | pEC50 [6, 10] | pEC50 [6, 11]
Cc1cc(C)n2ncc(C(=O)Nc3ccc(Br)cc3)c2n1 | can increase turnover | 31.6 | 90 ± 8 | 6.09 | 42 ± 13 | 6.10 | do not increase | only a small effect | 12 ± 4 | 5.89 | -14 ± 3 | can be also modulated | 370 | 6.06 | 6.37 | 84 ± 10 | 231 ± 10 | 6.05 | 6.15
C#Cc1ccc(NC(=O)c2cnn3c(C)cc(C)nc23)cc1 | can increase turnover | 31.6 | 55 ± 2 | 5.97 | 19 ± 6 | 5.99 | do not increase | – | 5 ± 2 | – | -13 ± 4 | – | 210 | 6.10 | 6.64 | 78 ± 8 | 133 ± 7 | 6.11 | 6.47

pEC50: −log10 of the molar value. Like-named read-outs stand apart in the source and are kept apart here.
